How the values were obtained:
[1] = target: T1, human opioid receptor-like (ORL-1) (Homo sapiens, UniProt P41146); experiment: In vitro ORL-1 receptor functional assay ([35S]GTPγS binding); details: for GTP Emax (%) ORL-1: maximal effect relative to the effect elicited by nociceptin; for EC50: read-out: GTP EC50 (nM) ORL-1, [35S]GTPγS, ORL-1 membranes
Kappa opioid receptor = Kappa opioid receptor (Homo sapiens, UniProt P41145); experiment: In vitro κ-opioid receptor functional assay ([35S]GTPγS binding); details: for GTP Emax (%) Opioid Receptor κ: maximal effect relative to the effect elicited by U69,593; for EC50: read-out: GTP EC50 (nM) Opioid Receptor K, [35S]GTPγS, kappa membranes
[2] = target: T1, human opioid receptor-like (ORL-1); experiment: In vitro ORL-1 receptor binding assay ([3H]-nociceptin displacement); details: read-out: Ki [Average ± Std Deviation] (nM) ORL-1; membranes from recombinant HEK-293 cells; 0.1 nM [3H]-nociceptin
[3] = target: human kappa opioid receptor (kappa) (Homo sapiens, UniProt P41145); experiment: In vitro κ-opioid receptor binding assay ([3H]-U69,593 dose displacement); details: read-out: Ki [Average ± Std Deviation] (nM) Opioid Receptor κ; membranes from recombinant HEK-293 cells; 0.4-0.8 nM [3H]-U69,593
[4] = target: recombinant delta opioid receptor (Homo sapiens, UniProt P41143); experiment: In vitro δ-opioid receptor binding assay ([3H]-Naltrindole dose-displacement); details: read-out: Ki [Average ± Std Deviation] (nM) Opioid Receptor Δ; receptor expressed in CHO-K1 cells; 0.2 nM [3H]-Naltrindole
µ-opioid receptor [5] = target: T2, µ-opioid receptor (Homo sapiens, UniProt P35372); experiment: In vitro µ-opioid receptor binding assay ([3H]-diprenorphine dose-displacement); details: read-out: Ki [Average ± Std Deviation] (nM) Opioid Receptor µ; 0.2 nM [3H]-diprenorphine
µ-opioid receptor [6] = target: T2, µ-opioid receptor; experiment: In vitro µ-opioid receptor functional assay ([35S]GTPγS); details: for GTP Emax (%) Opioid Receptor µ: maximal effect relative to the effect elicited by DAMGO; for EC50: read-out: GTP EC50 (nM) Opioid Receptor µ, [35S]GTPγS, µ-receptor membranes

SMILES	GTP Emax (%) ORL-1 [1] [%]	EC50 [1] [nM]	GTP Emax (%) Opioid Receptor κ (Kappa opioid receptor) [%]	EC50 (Kappa opioid receptor) [nM]	Ki [2] [nM]	Ki [3] [nM]	Ki [4] [nM]	Ki (µ-opioid receptor [5]) [nM]	GTP Emax (%) Opioid Receptor µ (µ-opioid receptor [6]) [%]	EC50 (µ-opioid receptor [6]) [nM]
O=c1[nH]c2ccccc2n([C@@H]2C[C@H]3CCC[C@@H](C2)N3C2CCCCCCC2)c1=O	53	96	28	4800	13	170	21900	769		
O=C1CC(=O)N([C@H]2C[C@H]3CCC[C@@H](C2)N3C2CCCCCCC2)c2ccccc2N1	22	168			173			11900		
O=c1[nH]c2ccccc2n([C@H]2C[C@H]3CCC[C@@H](C2)N3C2CCCCCCC2)c1=O	44	25			4		20800	529		
O=c1[nH]c2ccccc2n(C2CCN(C3CCCCCCC3)CC2)c1=O	87.3 ± 5.3	240	13.7 ± 0.9	590	65	167	2900	2200		
CCC1(CC)C(=O)Nc2ccccc2N(C2CCN(C3CCC(C(C)C)CC3)CC2)C1=O (stereo not drawn)					1550			5000		
COC(=O)c1ccc2c(c1)N(C1CCN(C3CCCCCCC3)CC1)C(=O)CC(=O)N2					39900					
CC(C)C1CCC(N2CCC(n3c(=O)c(=O)[nH]c4ccccc43)CC2)CC1 (stereo not drawn)	68 ± 1.0	208	22.5 ± 2.6	4050	22.8	880	9600	825	28.5 ± 2.6	3920
COc1ccc2c(n1)NC(=O)CC(=O)N2C1CCN(C2/C=C\CCCCC2)CC1 (stereo not drawn)					16500					
O=C1CC(=O)N(C2CCN(C3CCCCCCC3)CC2)c2cccc(F)c2N1		770			229					
O=C1CC(=O)N(C2CCN(C3CCCCCCC3)CC2)c2ccccc2N1		166		1290	35.5	355	16200	13700		
CN1C(=O)CC(=O)N(C2CCN(C3CCCCCCC3)CC2)c2ccccc21					1530					
O=c1[nH]c2ccc(F)cc2n(C2CCN(C3CCCCCCC3)CC2)c1=O	74 ± 16	11.5			11.5			2500		2500
O=c1[nH]c2c(F)cccc2n(C2CCN(C3CCCCCCC3)CC2)c1=O	60.3 ± 4.6	183			63.2					
O=c1[nH]c2ncccc2n(C2CCN(C3CCCCCCC3)CC2)c1=O	38	202			89	1320	54800	17400		
CC(C)C1CCC(N2CCC(N3C(=O)CC(=O)Nc4ccccc43)CC2)CC1 (stereo not drawn)		1400			610			2950		
N#CCn1c(=O)c(=O)n(C2CCN(C3CCCCCCC3)CC2)c2ccccc21	46	141			52	4230	65700	9540		
O=c1[nH]c2ccccc2n(C2CCN(C3Cc4cccc5cccc3c45)CC2)c1=O (stereo not drawn)	132 ± 8.5	31.9	57.7 ± 4.3	7000	8.9	439	4050	1300	66.0 ± 0.7	1640
COc1ccc2c(n1)N(C1CCN(C3/C=C\CCCCC3)CC1)C(=O)CC(=O)N2 (stereo not drawn)					6010					
O=C1CC(=O)N(C2CCN(C3CCCCCCC3)CC2)c2cc(F)ccc2N1		153			32.6			3800		
O=C1CC(=O)N(C2CCN(C3CCCCCCC3)CC2)c2cccnc2N1		574			51		72400	12400		
NC(=O)Cn1c(=O)c(=O)n(C2CCN(C3Cc4cccc5cccc3c45)CC2)c2ccccc21 (stereo not drawn)	152 ± 18	5250			453	6950	5450	3300		
O=c1[nH]c2ccc(N3CCOCC3)cc2n(C2CCN(C3CCCCCCC3)CC2)c1=O	90	7800	25	14000	584	559	52100	28200		
O=C1CC(=O)N(C2CCN(C3CCCCCCC3)CC2)c2cc(C(=O)O)ccc2N1					> 1e+06					
COC(=O)C1(N2CCC(N3C(=O)CC(=O)Nc4ccc(F)cc43)CC2)CCCCCCC1		1550			68			11700		
CCC1(CC)C(=O)Nc2ccccc2N(C2CCN(C3CCCCCCC3)CC2)C1=O		1300			620			6200		
CCn1c(=O)c(=O)n(C2CCN(C3CCCCCCC3)CC2)c2ccccc21	27	450			291			> 1e+06		

Source: patent publication EP2397477B1, “Heterocyclic-substituted piperidine compounds and the uses thereof” (dated 2008)
